Results: PMC6400584, “Activation mechanism of ATP-sensitive K^+ channels explored with real-time nucleotide binding” (eLife, 2019)

By UniProt entry, the sequences of proteins in these tests, tags left out. Where a name states a change or a piece, a line headed by the entry shows the natural chain unless it says otherwise.
UniProt Q09428, whole entry, stated change not applied: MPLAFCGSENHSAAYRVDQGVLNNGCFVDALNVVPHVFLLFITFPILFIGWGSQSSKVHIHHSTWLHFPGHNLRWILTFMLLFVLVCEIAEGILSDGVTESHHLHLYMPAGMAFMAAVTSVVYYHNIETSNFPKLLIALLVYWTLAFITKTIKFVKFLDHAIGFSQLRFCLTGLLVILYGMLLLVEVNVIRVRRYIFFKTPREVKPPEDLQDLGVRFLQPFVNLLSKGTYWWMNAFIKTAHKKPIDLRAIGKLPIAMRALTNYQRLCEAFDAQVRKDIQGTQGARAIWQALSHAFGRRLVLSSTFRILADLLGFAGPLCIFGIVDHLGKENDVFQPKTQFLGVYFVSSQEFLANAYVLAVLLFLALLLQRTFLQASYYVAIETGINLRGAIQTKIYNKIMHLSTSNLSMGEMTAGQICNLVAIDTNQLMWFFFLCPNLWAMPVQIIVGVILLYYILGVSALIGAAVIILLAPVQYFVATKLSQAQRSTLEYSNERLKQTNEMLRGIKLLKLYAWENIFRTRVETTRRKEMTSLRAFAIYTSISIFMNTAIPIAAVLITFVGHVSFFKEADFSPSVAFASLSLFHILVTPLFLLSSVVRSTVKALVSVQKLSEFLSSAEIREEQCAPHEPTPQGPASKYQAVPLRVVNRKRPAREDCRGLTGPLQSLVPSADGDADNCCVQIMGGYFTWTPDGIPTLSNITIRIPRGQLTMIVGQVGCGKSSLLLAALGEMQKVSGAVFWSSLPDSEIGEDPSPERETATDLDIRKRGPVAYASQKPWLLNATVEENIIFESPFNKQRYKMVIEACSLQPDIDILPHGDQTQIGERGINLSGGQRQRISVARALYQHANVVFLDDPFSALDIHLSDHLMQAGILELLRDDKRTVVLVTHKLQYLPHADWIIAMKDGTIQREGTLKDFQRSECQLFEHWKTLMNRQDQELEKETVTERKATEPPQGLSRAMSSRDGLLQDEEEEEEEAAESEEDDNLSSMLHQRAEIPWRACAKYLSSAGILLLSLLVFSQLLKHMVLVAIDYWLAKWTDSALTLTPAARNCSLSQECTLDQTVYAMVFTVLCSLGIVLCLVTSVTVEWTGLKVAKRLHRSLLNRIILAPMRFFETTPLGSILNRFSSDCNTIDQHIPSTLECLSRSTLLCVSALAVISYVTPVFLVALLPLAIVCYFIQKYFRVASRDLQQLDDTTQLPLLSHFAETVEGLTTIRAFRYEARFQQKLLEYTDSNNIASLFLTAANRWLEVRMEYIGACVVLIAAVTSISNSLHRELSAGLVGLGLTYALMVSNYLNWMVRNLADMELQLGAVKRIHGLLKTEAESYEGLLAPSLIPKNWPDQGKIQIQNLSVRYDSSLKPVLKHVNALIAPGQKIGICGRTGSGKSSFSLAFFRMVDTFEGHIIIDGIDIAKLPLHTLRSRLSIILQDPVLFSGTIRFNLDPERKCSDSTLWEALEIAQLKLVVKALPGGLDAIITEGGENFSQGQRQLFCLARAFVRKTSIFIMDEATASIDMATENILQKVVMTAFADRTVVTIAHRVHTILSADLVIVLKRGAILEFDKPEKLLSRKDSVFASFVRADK
UniProt Q14654, whole entry G334D partner: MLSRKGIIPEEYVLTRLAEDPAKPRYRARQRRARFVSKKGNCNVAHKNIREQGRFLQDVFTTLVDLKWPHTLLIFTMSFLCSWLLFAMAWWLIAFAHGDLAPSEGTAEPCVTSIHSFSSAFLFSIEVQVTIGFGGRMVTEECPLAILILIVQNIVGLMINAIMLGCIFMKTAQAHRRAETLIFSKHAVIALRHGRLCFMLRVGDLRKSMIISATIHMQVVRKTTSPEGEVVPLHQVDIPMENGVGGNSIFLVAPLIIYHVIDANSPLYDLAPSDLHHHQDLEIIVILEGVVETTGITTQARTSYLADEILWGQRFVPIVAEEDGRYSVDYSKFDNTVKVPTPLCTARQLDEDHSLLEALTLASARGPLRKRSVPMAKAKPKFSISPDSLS

Key:
[1] = target: T1, SUR1-Y1353*,K2A/Kir6.2 (Homo sapiens, UniProt Q09428, K1384A/Y1353X); test: FRET binding of TNP-nucleotides to ANAP-labeled KATP in unroofed membrane fragments; details: with Mg2+, tested form: Mg2+
Protocol: (§1) Unroofed membranes were prepared using a modification of a protocol from the Heuser laboratory ([Heuser, 2000]; [Usukura et al., 2012]; [Zagotta et al., 2016]). Briefly, a coverslip containing adherent cells was removed from the cell culture medium and a small piece (0.5–1 cm) was broken off using jewelers forceps (#5) and washed in phosphate buffered saline (PBS, Thermo Fisher Scientific) diluted 1:3 in deionized water. Cells were exposed 3 × 10 s to a solution of 0.01% poly-L-lysine (Sigma) with intervening washes in diluted PBS to adhere them more firmly to the coverslips. The coverslip fragment was then placed in a 30 mm culture dish filled with 2–3 mL of 1/3X PBS and sonicated very briefly (~100 ms) using a probe sonicator (Vibra-cell; Newtown, CT), leaving behind adherent plasma membrane and sometimes additional cellular material. The unroofed fragments in our experiments were sometimes visible under bright-field illumination, a potential result of our modified ‘unroofing’ procedure. Morphologically, such cell fragments resemble the ‘partially unroofed’ cells identified by Usukura et al. ([Usukura et al., 2012]) Cells cultured on poly-D-lysine coated FluoroDishes were unroofed in diluted PBS with no additional poly-L-lysine treatment. This procedure yielded a higher percentage of completely unroofed plasma membranes (i.e. nearly invisible with brightfield illumination).
(§2) Unroofed membrane fragments were imaged directly on FluoroDishes (FD35-PDL-100, World Precision Instruments) or on broken coverslips placed in a FluoroDish (FD3510, World Precision instruments) using a Nikon TE2000-U microscope equipped with a 40x (S Fluor, 1.3 NA; Nikon, Kingston Upon Thames, UK) or 100x (Apo TIRF, 1.49 NA, Nikon) oil-immersion objective and low-fluorescence immersion oil (MOIL-30, Olympus; Southend-on-Sea, UK) or a 60x water immersion objective (Plan Apo VC, 1.20 NA, Nikon). ANAP was excited using a ThorLabs LED source (LED4D067) at 385 nm connected to the microscope using a liquid light guide in series with a 390/18 nm band-pass filter (MF390-18, ThorLabs; Newton, NJ) and MD416 dichroic (ThorLabs). For imaging, emitted light was filtered through a 479/40 nm band-pass filter (MF479-40, ThorLabs). GFP-tagged constructs were imaged using a similar setup with excitation at 490 nm, a 480/40 band-pass excitation filter (Chroma; Bellows Falls, VT), a DM505 dichroic mirror (Chroma), and 510 nm long-pass emission filter (Chroma). All images were acquired using a PIXIS 400B CCD camera (Princeton Instruments; Trenton, NJ). For spectroscopy, ANAP was excited as above, but emitted light was passed through a 400 nm long-pass filter (FEL0400, ThorLabs) and directed through the slit of an Isoplane 160 spectrometer (300 g/mm grating; Princeton Instruments) in series with the camera. The acquired images retained spatial information in the y-dimension, with the x-dimension replaced by wavelength (Figure 1—figure supplement 1a). Exposure times were typically 100 ms for brightfield images, 1–10 s for steady-state spectra and 1–5 s for time-course experiments.
(§3) To prevent accumulation of fluorescent nucleotides in the bath, FluoroDishes were perfused with either (in mM) 140 KCl, 20 NaCl, 10 MgCl2, 10 HEPES pH 7.2 with NaOH or 140 KCl, 20 NaCl, 1 EDTA, 10 HEPES pH 7.2 with NaOH using a peristaltic pump (Ismatec; Wertheim, Germany). Unroofed membranes were directly perfused with nucleotides using an 8-channel µFlow perfusion system (ALA Scientific Instruments; Farmingdale, NY). Solution change with the µFlow was rapid (τ = 0.73 s±0.02 s, n=5) as measured from single exponential fits to wash-out of 50 µM tetramethylrhodamine-5-maleimide (TMRM) after switching to a solution with no TMRM. TMRM was excited with a 565 nm LED with a D540/25X band-pass filter (Chroma) and DM565 dichroic mirror (Chroma). Emitted light was collected through a D605/55M band-pass filter (Chroma). […]

[2] = target: SUR1-Y1353*/Kir6.2 (NBS2 of SUR1) (Homo sapiens, UniProt Q09428, Y1353X); test: as above; details: with Mg2+, tested form: Mg2+
Protocol: as §1, §2, §3

[3] = target: SUR1-T1397*/Kir6.2 (Homo sapiens, UniProt Q09428, T1397X); test: as above; details: with Mg2+, tested form: Mg2+
[4] = system: SUR1-Y1353*/Kir6.2-G334D; test: as above; details: with Mg2+, tested form: Mg2+
[5] = system: SUR1-Y1353*/Kir6.2; test: Nucleotide wash-out (dissociation) time course; format: binding, Homo sapiens; details: with Mg2+, tested form: Mg2+
[6] = target: T1, SUR1-Y1353*,K2A/Kir6.2; test: Nucleotide wash-out (dissociation) time course; format: binding; details: with Mg2+, tested form: Mg2+
Source text: as §3, with “[…] Solution exchange” for “Emitted light”, “also monitored during experiments with TNP-nucleotides by examining the emission spectrum of” for “collected through”, “background region in each image.” for “D605/55M band-pass filter (Chroma).”
To measure the time course of nucleotide unbinding, the fluorescence at the TNP-nucleotide peak (usually around 560 nm) was plotted as a function of time after exchanging to a zero-nucleotide solution, as following the time course of the rise in ANAP fluorescence was complicated by photobleaching. After complete wash out of nucleotides, the fluorescence at 560 nm was non-zero, as the shoulder of the ANAP emission spectrum extends into the range of wavelengths at which TNP-nucleotides emit. […]

[7] = target: SUR1/Kir6.2-G334D (Homo sapiens, UniProt Q09428); test: Current activation in inside-out patches; format: biochemical; details: tested form: Mg2+; for EC50: read-out: EC50 (current activation)
Protocol: Currents were recorded from inside-out membrane patches excised from transfected HEK-293T cells. Pipettes were pulled to a resistance of 1–5 MΩ and filled with an extracellular solution containing (in mM) 140 KCl, 1.2 MgCl2, 2.6 CaCl2, and 10 HEPES, pH 7.4 or 140 KCl, 1 EGTA, 10 HEPES, pH 7.3. The intracellular (bath) solutions contained either (in mM) 107 KCl, 2 MgCl2, 1 CaCl2, 10 EGTA, and 10 HEPES, pH 7.2 for experiments showing nucleotide-dependent activation or 140 KCl, 1 EDTA, 1 EGTA, 10 HEPES pH 7.3 for experiments showing nucleotide-dependent inhibition. Nucleotides were added as indicated. Patches were perfused with an 8-channel µFlow perfusion system. Data were acquired at a holding potential of −60 mV using an Axopatch 200B amplifier and Digidata 1322A digitizer with pClamp 9.0 software (Molecular Devices). Currents were digitized at 10 kHz and low-pass filtered at 1 kHz. KATP channels run down in excised patches (reviewed by Proks et al.) ([Proks et al., 2016]). For inhibitory concentration-response relationships, rundown was corrected by alternating test nucleotide solutions with nucleotide-free (control) solutions and expressing the test currents as a fraction of the average of the control currents before and after the test solution. […] For activation concentration-responses, the same protocol was used, but test concentrations were alternated with a saturating concentration (1 mM) of MgADP ([Proks et al., 2010]).
Currents were leak corrected by subtracting the remaining current after complete rundown.

[8] = system: SUR1-T1397*/Kir6.2-G334D; test: Current activation in inside-out patches; format: biochemical, Homo sapiens; details: read-out: EC50 (current activation); mean ± SEM of fits of equation 5 to individual experiments; tested form: Mg2+
Protocol: Currents were recorded from inside-out membrane patches excised from transfected HEK-293T cells. Pipettes were pulled to a resistance of 1–5 MΩ and filled with an extracellular solution containing (in mM) 140 KCl, 1.2 MgCl2, 2.6 CaCl2, and 10 HEPES, pH 7.4 or 140 KCl, 1 EGTA, 10 HEPES, pH 7.3. The intracellular (bath) solutions contained either (in mM) 107 KCl, 2 MgCl2, 1 CaCl2, 10 EGTA, and 10 HEPES, pH 7.2 for experiments showing nucleotide-dependent activation or 140 KCl, 1 EDTA, 1 EGTA, 10 HEPES pH 7.3 for experiments showing nucleotide-dependent inhibition. Nucleotides were added as indicated. Patches were perfused with an 8-channel µFlow perfusion system. Data were acquired at a holding potential of −60 mV using an Axopatch 200B amplifier and Digidata 1322A digitizer with pClamp 9.0 software (Molecular Devices). Currents were digitized at 10 kHz and low-pass filtered at 1 kHz. KATP channels run down in excised patches (reviewed by Proks et al.) ([Proks et al., 2016]). For inhibitory concentration-response relationships, rundown was corrected by alternating test nucleotide solutions with nucleotide-free (control) solutions and expressing the test currents as a fraction of the average of the control currents before and after the test solution. […]

[9] = system: SUR1-T1397*/Kir6.2 (binding) and SUR1-T1397*/Kir6.2-G334D (current); test: Simultaneous fit of binding and current activation with gating models; details: tested form: Mg2+; for E / KA: L = 0.52
[10] = mean ± SEM of fits to individual experiments
[11] = Equation 5 fit to combined data
[12] = mean ± SEM of fits of equation 5 to individual experiments
[13] = model (b): binding to a single SUR1 sufficient
[14] = model (c): binding to two SUR1 subunits required
[15] = model (e): all four SUR1 subunits must be occupied

- EC50 ([1]; fit to combined data): 12.5 µM
- Emax ([1]; fit to combined data): 0.96 ± 0.04
- h ([1]; fit to combined data): 0.9 ± 0.1
- EC50 [1, 10]: 18.6 µM
- Emax [1, 10]: 0.97 ± 0.03
- h [1, 10]: 0.97 ± 0.07
- Emax ([2]; fit of Equation 1 to combined data, ± standard error of fit): 0.99 ± 0.02
- EC50 ([2]; fit to combined data): 4.8 µM
- h ([2]; fit to combined data): 0.8 ± 0.1
- Emax ([2]; mean ± SEM of fits of equation 1 to individual experiments): 0.99 ± 0.01
- EC50 [2, 10]: 5.5 µM
- h [2, 10]: 0.77 ± 0.03
- fold lower binding EC50 than MgTNP-ATP [2]: ~ 7 fold
- EC50 ([3]; fit to combined data): 10.6 µM
- Emax ([3]; fit to combined data): 1.0 ± 0.01
- h ([3]; fit to combined data): 0.97 ± 0.06
- EC50 [3, 10]: 10.8 µM
- Emax [3, 10]: 1.01 ± 0.005
- h [3, 10]: 0.98 ± 0.05
- EC50 ([4]; fit to combined data): 7.7 µM
- EC50 [4, 10]: 8.2 µM
- τ of dissociation (single exponential) ([6]; fit to combined data): 13.5 s
- t0.5 (time to 50% dissociation) ([6]; mean ± SD): 9.3 ± 2.1 s
- h (current activation) [7, 11]: 0.9 ± 0.1
- h (current activation) [7, 12]: 1.1 ± 0.2
- EC50 [7, 11]: 22.1 µM
- EC50 [7, 12]: 20.6 µM
- EC50 [8]: 7.3 µM
Compound: Nc1ncnc2c1ncn2[C@@H]1O[C@H](COP(=O)(O)OP(=O)(O)O)[C@H]2OC3(O[C@H]21)C([N+](=O)[O-])=CC(=[N+]([O-])[O-])C=C3[N+](=O)[O-] (stereo partly shown)
- Emax ([4]; fit to combined data): 1.00 ± 0.04
- Emax [4, 10]: 1.01 ± 0.04
- t0.5 (time to 50% dissociation) ([5]; in the presence of 340 µM diazoxide, mean ± SD): 36.9 ± 9.4 s
- t0.5 (time to 50% dissociation) ([5]; in the presence of 500 µM tolbutamide, mean ± SD): 4.5 ± 1.5 s
- t0.5 (time to 50% dissociation) ([5]; no drug, mean ± SD of individual fits): 14.7 s and 14.7 ± 4.2 s
- τ of dissociation (single exponential) ([5]; fit to combined data): 21.3 s
- E (factor by which binding favors activation) ([9]; MWC model, L fixed to 0.52): 2.2 ± 0.2 and 2.2
- KA (equilibrium association constant) ([9]; MWC model, L fixed to 0.52): 58000 M⁻¹
- E [9, 13]: 1
- KA [9, 13]: 53000 M⁻¹
- E [9, 14]: 1
- KA [9, 14]: 89000 M⁻¹
- KA ([9]; model (d): binding to three SUR1 subunits required): 54000 M⁻¹
- E [9, 15]: 279.2
- KA [9, 15]: 53000 M⁻¹

Values joined by “and” are separate entries in the source; they are usually repeats but may differ in a detail not shown here. Equal entries are not always repeated. Where two headings read alike, the source gives them in different places.
